We go through one compound from article PMC10313662, “Structural insights into neurokinin 3 receptor activation by endogenous and analogue peptide agonists” (Cell Discovery, 2023).

Protein sequences, listed by entry. Tags and fused reporters are not part of them.
UniProt P29371, whole entry: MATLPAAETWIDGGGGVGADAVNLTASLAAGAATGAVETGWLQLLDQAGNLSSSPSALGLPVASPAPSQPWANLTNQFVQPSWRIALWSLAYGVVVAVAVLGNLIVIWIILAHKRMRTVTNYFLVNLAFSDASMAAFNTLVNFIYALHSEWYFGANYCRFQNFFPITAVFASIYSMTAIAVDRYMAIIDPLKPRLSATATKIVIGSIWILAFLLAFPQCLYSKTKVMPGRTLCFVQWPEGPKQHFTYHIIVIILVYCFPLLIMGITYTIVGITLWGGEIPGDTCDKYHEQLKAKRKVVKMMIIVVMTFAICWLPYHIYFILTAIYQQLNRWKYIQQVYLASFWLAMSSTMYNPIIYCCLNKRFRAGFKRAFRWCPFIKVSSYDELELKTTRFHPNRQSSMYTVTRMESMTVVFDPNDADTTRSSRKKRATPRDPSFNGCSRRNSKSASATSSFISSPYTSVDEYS

The target of the test is T1, wild-type NK3R (Homo sapiens, UniProt P29371).
T1 construct: FLAG (DYKDDDDK); expressed in transfected cells; host or cells: HEK293T
The experiment in a line: IP-one accumulation assay, wild-type NK3R. It counts as cell-based.

For orientation: Emax means the size of the effect at its maximum, as opposed to the concentration needed. With `CSCC[C@H](NC(=O)[C@H](CC(C)C)NC(=O)CNC(=O)[C@H](Cc1ccccc1)N(C)C(=O)[C@H](Cc1ccccc1)NC(=O)[C@H](CC(=O)O)NC(=O)CCC(=O)O)C(N)=O` [senktide, suc-(Asp6, MePhe8) SP (6–11)], the Emax was found to be 100%.
